Literature values, collected in publication PMC5412445, “ZeGlobalTox: An Innovative Approach to Address Organ Drug Toxicity Using Zebrafish” (International Journal of Molecular Sciences, 2017).

System: humans
Conditions: known toxicity in humans, ref TOXNET (HSDB), Side effects (EMBL), drugs.com, cited from earlier work

For `C[C@]12CC[C@H](O)C[C@H]1CC[C@@H]1[C@@H]2C[C@@H](O)[C@]2(C)[C@@H](C3=CC(=O)OC3)CC[C@]12O` [Digoxigenin, digoxigenin], the “Neurotoxicity (toxicity in humans)” value ([22],[30],[31],[34],[35]) is given as “Safe” and the “Hepatotoxicity (toxicity in humans)” value (ema.europa, [24],[26],[27],[32],[33]) is given as “Safe”.
